In PubChem BioAssay (Tox21):
Values joined by “and” are separate entries in the source; they are usually repeats but may differ in a detail not shown here. Identical values can stand only once. This is a selection; strong and weak results do not stand in their true shares. Active and inactive are the calls of the source. Calls follow the shape of the dose curve; as a rule, active = well fitted activation curve with a large enough effect in the repeat runs; inconclusive = weak or mixed curves; inactive = flat fitted curve, though single readings scatter.

Test: A CellTox Green Cytotoxicity Assay to monitor cytotoxicity in HepG2 cells - 0 hour (AID 1224882); also: nearly all actives have a fitted effect of over 35% in size
Conditions: CellTox Green fluorescence, at 35.3 µM (top of the series)
Source text: National Center for Advancing Translational Sciences [NCATS]
NIH Chemical Genomics Center [NCGC]
U.S. Environmental Protection Agency [EPA]
National Institutes of Environmental Health Sciences [NIEHS]
National Toxicology Program [NTP]
Cell-based models are critical for drug discovery. Determining the natural cytotoxic effects resulting from test compounds is an essential research activity. A CellTox Green Cytotoxicity Assay to monitor cytotoxicity in real time of continues cell culture during 40 hours of the compound treatment was used to screen Tox21 10K library compounds in HepG2 cells. CellTox Green Cytotoxicity Assay is a nonlytic, homogeneous, biofluorescent method to measure cytotoxicity in cell culture after experimental manipulation. The assay system uses a proprietary asymmetric cyanine dye that is excluded from viable cells but preferentially stains the dead cell's DNA. […] Viable cells produce no appreciable increases in fluorescence. Therefore, the fluorescence signal produced by the binding interaction with dead cell DNA is proportional to cytotoxicity.
The mixture of HepG2 cell suspension and reagents were dispensed at 600cells/6 ul/well in 1536-well tissue culture treated black solid bottom plates using a Multidrop dispenser. After the assay plates were incubated at a 37 C/5% CO2 incubator for 5 hours, 23 nL of compounds dissolved in DMSO, positive and negative controls was transferred to the assay plate by a pintool work station. The plates were incubated at 37 C for 40 hours. The fluorescence intensity were measured at 0h, 8h, 16h, 24h, 32h and 40h time points using ViewLux plate reader during compound treatment.
% is scaled to controls: 0 for no effect and ±100 for the full control effect.

Question: Which cytotoxicity does the source give for `NC(=O)Nc1ccc([As](=O)(O)O)cc1` here?
Answer: inactive: -11.8%

Same assay, conditions: CellTox Green fluorescence, at 76.8 µM (top of the series)

Question: For `NC(=O)Nc1ccc([As](=O)(O)O)cc1`, which cytotoxicity is on record?
Answer: inactive: -7.31%

Same assay, conditions: CellTox Green fluorescence; at 76.8 µM (top of the series) unless noted

Question: With `O=P(Cl)(Oc1ccccc1)Oc1ccccc1` as the compound, how does the cytotoxicity read?
Answer: inactive: -9.72%

Question: With `O=C1C2CC=CCC2C(=O)N1SC(Cl)(Cl)C(Cl)Cl` (configuration not stated) as the compound, how does the cytotoxicity read?
Answer: inactive: -1.7% and inactive: -3.94%

Question: Which cytotoxicity does the source give for `O=[N+]([O-])c1ccc([N+](=O)[O-])cc1` here?
Answer: inactive: -9.36%

Question: Which cytotoxicity does the source give for `CCOC(=O)Cl` here?
Answer: inactive: -5.75%

Question: For `O=[N+]([O-])c1ccc(S(=O)(=O)O)c([N+](=O)[O-])c1`, which cytotoxicity is on record?
Answer: inactive: 1.08%

Question: Which cytotoxicity does the source give for `ClP(Cl)c1ccccc1` here?
Answer: inactive: 2.18%

Question: Which cytotoxicity does the source give for `O=C(Cl)OCCOC(=O)Cl` here?
Answer: inactive: -4.24%

Question: Which cytotoxicity does the source give for `CCOP(=S)(CC)Sc1ccccc1` (configuration not stated) here?
Answer: inactive: -7.96%

Question: For `CN(N=O)C(=N)N[N+](=O)[O-]`, which cytotoxicity is on record?
Answer: inactive: 1.05%

Question: For `O=[As]c1ccccc1` (configuration not stated), which cytotoxicity is on record?
Answer: inactive: -2.15%

Question: For `CN(C(=O)Cc1ccc(Cl)c(Cl)c1)[C@H]1CC[C@@]2(CCCO2)C[C@@H]1N1CCCC1`, which cytotoxicity is on record?
Answer: inactive: -0.801% [at 35.3 µM]

Question: With `COC(=O)Cl` as the compound, how does the cytotoxicity read?
Answer: inactive: -3.96%

Question: For `CN(C(=O)Cc1ccccc1)[C@H]1CC[C@@]2(CCCO2)C[C@@H]1N1CCCC1`, which cytotoxicity is on record?
Answer: inactive: 14.9% [at 35.3 µM]

Question: Which cytotoxicity does the source give for `O=C(Cl)Oc1ccccc1` here?
Answer: inactive: 1.86%

Question: For `CCCCOP(OCCCC)OCCCC`, which cytotoxicity is on record?
Answer: inactive: -7.1%

Question: Which cytotoxicity does the source give for `CC(C)CCCCCCCOP(OCCCCCCCC(C)C)Oc1ccccc1` here?
Answer: inactive: 0.263%

Question: For `O=[p+]1oc2ccccc2c2ccccc21` (configuration not stated), which cytotoxicity is on record?
Answer: inactive: -1.04%

Question: Which cytotoxicity does the source give for `N#CSc1ccc([N+](=O)[O-])cc1[N+](=O)[O-]` here?
Answer: inactive: -8%

Question: Which cytotoxicity does the source give for `Cc1cc([N+](=O)[O-])c(O)c([N+](=O)[O-])c1` here?
Answer: inactive: -20.8%

Question: Which cytotoxicity does the source give for `O=P(Cl)(Cl)c1ccccc1` here?
Answer: inactive: -7.16%

Question: For `COP(=S)(Cl)OC`, which cytotoxicity is on record?
Answer: inactive: -3.33%

Question: Which cytotoxicity does the source give for `Cc1cc([N+](=O)[O-])cc([N+](=O)[O-])c1O` here?
Answer: inactive: 0.39% and inactive: -8.85%

Question: Which cytotoxicity does the source give for `CC(C)OP(=S)(OC(C)C)SCCNS(=O)(=O)c1ccccc1` here?
Answer: inactive: 4.23%

Question: With `CCC(C)(OOC(C)(C)C)OOC(C)(C)C` as the compound, how does the cytotoxicity read?
Answer: inactive: -12.4% [at 15.8 µM]

Question: Which cytotoxicity does the source give for `CCCCC(CC)CO[P+](=O)OCC(CC)CCCC` (configuration not stated) here?
Answer: inactive: 7.71%

Question: Which cytotoxicity does the source give for `CCCCO[P+](=O)OCCCC` here?
Answer: inactive: -1.11% and inactive: 0.166%

Question: With `O=[P+](Oc1ccccc1)Oc1ccccc1` as the compound, how does the cytotoxicity read?
Answer: inactive: 0.413%

Question: With `CN(C(=O)Cc1cccc2occc12)[C@H]1CC[C@@]2(CCCO2)C[C@@H]1N1CCCC1` as the compound, how does the cytotoxicity read?
Answer: inactive: -3.88%

Question: Which cytotoxicity does the source give for `CCNC(C)Cc1ccc2c(c1)OCO2` (configuration not stated) here?
Answer: inactive: 1.28%

Question: For `CCCCCCCCCCCCCC[P+](CCCCCC)(CCCCCC)CCCCCC`, which cytotoxicity is on record?
Answer: inactive: -1.58%
